Patent US9409915B2, “Substituted aza-bicyclic imidazole derivatives useful as TRPM8 receptor modulators” (Janssen Pharmaceutica NV, priority 2010, dated 2016)
Where a name gives a salt, the structure may show the parent alone. Read-outs that look alike come from different tables or passages of the source.

Chains of the proteins cited; added tags and fusions are not shown. Residues count along the entry.
UniProt Q1A7N1, 1-1104: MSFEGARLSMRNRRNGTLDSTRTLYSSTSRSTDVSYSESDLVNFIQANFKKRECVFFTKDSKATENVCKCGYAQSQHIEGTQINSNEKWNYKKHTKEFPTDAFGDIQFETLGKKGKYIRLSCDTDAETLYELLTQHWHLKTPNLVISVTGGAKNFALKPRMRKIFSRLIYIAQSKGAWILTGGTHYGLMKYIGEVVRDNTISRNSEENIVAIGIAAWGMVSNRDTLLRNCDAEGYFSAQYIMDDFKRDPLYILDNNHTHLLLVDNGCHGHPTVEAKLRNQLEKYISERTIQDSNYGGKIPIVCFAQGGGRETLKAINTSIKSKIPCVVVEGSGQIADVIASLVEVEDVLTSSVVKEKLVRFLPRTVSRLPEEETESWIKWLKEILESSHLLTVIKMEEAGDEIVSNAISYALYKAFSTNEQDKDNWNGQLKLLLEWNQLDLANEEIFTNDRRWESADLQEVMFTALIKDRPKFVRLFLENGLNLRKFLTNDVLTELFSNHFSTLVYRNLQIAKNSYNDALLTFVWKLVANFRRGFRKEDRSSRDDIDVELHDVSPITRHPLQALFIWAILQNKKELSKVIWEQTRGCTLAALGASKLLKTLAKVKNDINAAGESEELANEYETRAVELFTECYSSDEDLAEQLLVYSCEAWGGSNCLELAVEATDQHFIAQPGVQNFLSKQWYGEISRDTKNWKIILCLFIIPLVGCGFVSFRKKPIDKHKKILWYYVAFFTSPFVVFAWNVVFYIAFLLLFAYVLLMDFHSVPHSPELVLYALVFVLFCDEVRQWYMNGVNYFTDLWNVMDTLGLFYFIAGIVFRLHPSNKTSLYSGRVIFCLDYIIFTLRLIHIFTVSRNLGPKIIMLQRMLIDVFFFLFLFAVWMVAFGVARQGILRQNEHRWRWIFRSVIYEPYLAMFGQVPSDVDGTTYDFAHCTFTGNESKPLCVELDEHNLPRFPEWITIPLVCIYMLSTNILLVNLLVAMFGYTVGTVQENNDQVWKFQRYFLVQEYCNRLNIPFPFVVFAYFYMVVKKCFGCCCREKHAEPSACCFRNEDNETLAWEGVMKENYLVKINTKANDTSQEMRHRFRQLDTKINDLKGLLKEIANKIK

Molecular target: canine TRPM8 (Canis lupus familiaris, UniProt Q1A7N1)
Test: In vitro canine TRPM8 functional assay (Ca2+-sensitive fluorescent dye, icilin activation)
Format: cell-based
Conditions: for IC50: eight-point concentration-response
Description: The functional activity of representative compounds of the formula (I) of the present invention was quantified by measuring changes in intracellular calcium concentration using a Ca^2+-sensitive fluorescent dye. The changes in fluorescent signal were monitored by a fluorescence plate reader, either a FLIPR™ (Molecular Devices) or FDSS (Hamamatsu).
HEK293 cells stably expressing canine TRPM8 were routinely grown as monolayers in Dulbecco's minimum essential medium supplemented with 10% FBS, 2 mM L-glutamine, 100 units/mL penicillin, 100 ug/mL streptomycin and 400 μg/mL G418. Cells were maintained in 5% CO2 at 37° C. At 24 hr prior to assay, cells were seeded in black wall, clear-base poly-D-lysine coated 384-well plates (BD Biosciences, NJ, USA) at a density of 5,000 cells per well in culture medium and grown overnight in 5% CO2 at 37° C. On assay day, growth media was removed, and cells were loaded with Calcium 3 Dye (Molecular Devices) for 35 min at 37° C., under 5% CO2 and then incubated for 25 min at room temperature and atmosphere. Subsequently, cells were tested for agonist-induced increases in intracellular Ca^2+ levels using FLIPR™ or FDSS. Cells were treated with compounds of the formula (I) at varying concentrations and intracellular Ca^2+ was measured for 5 min prior to the addition of icilin to each well to achieve a final concentration that produces an approximately 80% maximal response.
Maximal fluorescence intensity (FI) achieved upon addition of icilin was exported from the FLIPR™ or FDSS software and further analyzed using GraphPad Prism 3.02 (Graph Pad Software Inc., CA, U.S.A.). Basal FI was subtracted prior to normalizing data to percent of maximal response. Curves were generated using the average of quadruplicate wells for each data point using nonlinear regression of either sigmoidal dose response or sigmoidal dose response (variable slope). Finally, the EC50 and IC50 values were calculated with the best-fit curve determined by GraphPad Prism

[1] = HEK293, read-out: % Inh @ 0.2 μM
[2] = HEK293 cells stably expressing canine TRPM8, icilin-induced Ca2+ response
[3] = HEK293, 0.2 μM compound, HEK293 cells stably expressing canine TRPM8, icilin-induced Ca2+ response, read-out: % Inh @ 0.2 μM

Row | SMILES | inhibition at 0.2 µM [1] [%] | IC50 [2] [nM] | inhibition at 0.2 µM [3] [%]
1 | COc1nc(-c2ccccc2C(F)(F)F)cc2nc(-c3cc(C(C)(C)C)no3)[nH]c12 [Compound 8, 2-(3-tert-Butyl-isoxazol-5-yl)-4-methoxy-6-(2-trifluoromethyl-phenyl)-3H-imidazo[4,5-c]-pyridine sodium salt] | 99 | 6 | 
2 | COc1nc(-c2ccccc2F)cc2nc(-c3c(Cl)c(C(C)(C)C)nn3C)[nH]c12 [Compound 77, 2-(5-tert-Butyl-4-chloro-2-methyl-2H-pyrazol-3-yl)-6-(2-fluorophenyl)-4-methoxy-3H-imidazo[4,5-c]pyridine sodium salt] |  | 20 | 102
3 | COc1nc(-c2ccccc2Cl)cc2nc(-c3c(Cl)c(C(C)(C)CF)nn3C)[nH]c12 [Compound 97, 2-[4-Chloro-5-(2-fluoro-1,1-dimethyl-ethyl)-2-methyl-2H-pyrazol-3-yl]-6-(2-chloro-phenyl)-4-methoxy-3H-imidazo[4,5-c]pyridine sodium salt] |  | 4.9 | 101
4 | COc1nc(-c2ccccc2Cl)cc2nc(-c3cc(C(C)(C)C)co3)[nH]c12 [Compound 99, 2-(4-tert-Butyl-furan-2-yl)-6-(2-chloro-phenyl)-4-methoxy-3H-imidazo[4,5-c]pyridine sodium salt] |  | 31.8 | 97
5 | COc1nc(-c2ccccc2Cl)cc2nc(-c3cc(C(C)(C)C)c(Br)o3)[nH]c12 [Compound 101, 2-(5-Bromo-4-tert-butyl-furan-2-yl)-6-(2-chloro-phenyl)-4-methoxy-3H-imidazo[4,5-c]pyridine sodium salt] |  | 33.9 | 88
6 | COc1nc(-c2c(Cl)cccc2Cl)cc2nc(-c3c(Cl)c(C(C)(C)C)nn3C)[nH]c12 [Compound 103, 2-(5-tert-Butyl-4-chloro-2-methyl-2H-pyrazol-3-yl)-6-(2,6-dichloro-phenyl)-4-methoxy-3H-imidazo[4,5-c]pyridine sodium salt] | 101 |  | 
